From patent US20100255521A1, “Fluorescent substrates for Detecting organophosphatase enzyme activity” (published 2010)

Chains of the proteins cited; added tags and fusions are not shown. Lines headed by an entry give the natural chain unless they say otherwise; changes in a name come on top.
UniProt P27169: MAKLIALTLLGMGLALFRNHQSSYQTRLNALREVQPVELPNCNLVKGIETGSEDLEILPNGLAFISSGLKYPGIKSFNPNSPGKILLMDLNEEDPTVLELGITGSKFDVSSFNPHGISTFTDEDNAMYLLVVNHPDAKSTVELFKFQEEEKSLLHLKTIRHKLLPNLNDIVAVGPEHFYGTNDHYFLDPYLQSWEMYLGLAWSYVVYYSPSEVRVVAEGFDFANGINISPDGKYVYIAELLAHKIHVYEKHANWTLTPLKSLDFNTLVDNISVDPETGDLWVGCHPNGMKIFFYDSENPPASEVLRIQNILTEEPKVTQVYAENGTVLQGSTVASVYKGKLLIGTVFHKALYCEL
UniProt P27170: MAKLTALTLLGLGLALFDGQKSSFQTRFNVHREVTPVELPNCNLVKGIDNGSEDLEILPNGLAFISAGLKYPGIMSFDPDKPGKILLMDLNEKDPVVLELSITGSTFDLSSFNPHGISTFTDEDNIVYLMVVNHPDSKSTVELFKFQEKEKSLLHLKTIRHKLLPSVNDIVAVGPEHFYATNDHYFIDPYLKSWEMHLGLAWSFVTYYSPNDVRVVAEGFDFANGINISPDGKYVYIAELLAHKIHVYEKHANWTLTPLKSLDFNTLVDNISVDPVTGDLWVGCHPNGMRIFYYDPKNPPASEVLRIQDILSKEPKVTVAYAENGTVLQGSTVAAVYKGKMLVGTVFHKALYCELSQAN
UniProt P52430: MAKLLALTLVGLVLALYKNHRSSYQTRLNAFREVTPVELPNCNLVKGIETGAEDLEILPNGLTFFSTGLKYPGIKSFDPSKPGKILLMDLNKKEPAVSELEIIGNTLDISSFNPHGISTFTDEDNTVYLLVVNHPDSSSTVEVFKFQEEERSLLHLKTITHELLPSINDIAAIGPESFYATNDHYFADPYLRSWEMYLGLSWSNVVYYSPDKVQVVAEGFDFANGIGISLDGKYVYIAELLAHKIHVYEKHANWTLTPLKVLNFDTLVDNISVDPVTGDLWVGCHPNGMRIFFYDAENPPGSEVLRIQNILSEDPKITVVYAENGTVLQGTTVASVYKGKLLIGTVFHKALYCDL

Assays:
[1] = biological target: recombinant human paraoxonase, expressed in CHO cells (Homo sapiens, UniProt P27169); conditions: incubation with PON1 transfected CHO cells, fluorescence 355/460
[2] = biological target: human paraoxonase (PON1) expressed in CHO cells (Homo sapiens, UniProt P27169); conditions: 100 μM substrate, 48 hours after transfection, 355/460
[3] = system: human PON1 (mutants and natural variants) expressed in CHO cells; conditions: 100 μM substrate, 355/460
[4] = system: PON1 variant/mutants (145-6, 142-2, 131-10, 122-7) in CHO cells; experiment: Hydrolysis of DEPFMU by CHO cells transfected with PON1 mutants; conditions: 40 μg/mL substrate, 10 min at 37 C
[5] = biological target: rabbit recombinant paraoxonase (Oryctolagus cuniculus, UniProt P27170); experiment: Km of recombinant rabbit paraoxonase for DEPFMU, Lineweaver-Burk plot
OPH = OPH (Brevundimonas diminuta, UniProt P0A434); experiment: OPH detection sensitivity and kinetics of OPH mediated hydrolysis (Example 7)
bacterial OPH = bacterial OPH (Brevundimonas diminuta, UniProt P0A434); experiment: Detection of OPH with FDPTEE (Example 9, FIG. 7); conditions: 100 μM FDPTEE, 30 min at 37° C., Ex 488 nm/Em 520 nm
serum paraoxonase [6] = biological target: serum paraoxonase (Mus musculus, UniProt P52430); experiment: FDPTEE hydrolysis by sera of normal and PON1 KO mice (FIG. 8); conditions: sera diluted 1/10, 100 μM FDPTEE, 30 min at 37° C., Ex 488 nm/Em 520 nm
serum paraoxonase [7] = experiment: as above; conditions: sera diluted 1/10, 100 μM FDPTEE, 30 min at 37° C., Ex 488 nm/Em 520 nm

| Substance | hydrolysis by paraoxonase [1] | hydrolysis by CHO cells transfected with the vector expressing paraoxonase [2] | hydrolysis by mock-transfected CHO cells [2] | hydrolysis by PON1 transfected CHO cells [3] | hydrolysis by mock-transfected (control) CHO cells [3] | Spontaneous hydrolysis of substrate by CHO non-transfected cells [4] | hydrolysis by control CHO cell [4] | hydrolysis by the four PON1 mutants ([4]; 355/460) | Km [5] | Km (OPH) | catalytic rate (kcat) of OPH mediated hydrolysis (OPH) | sensitivity for OPH detection relative to paraoxon (OPH) | level of reliable detection of OPH per well (bacterial OPH) | fluorescence in sera from normal C57Black mice (serum paraoxonase [6]) | fluorescence in sera from PON1 KO mice (serum paraoxonase [7]) |
| --- | --- | --- | --- | --- | --- | --- | --- | --- | --- | --- | --- | --- | --- | --- | --- |
| 7-diethyl-phospho-6,8-difluoro-4-methylumbelliferyl | specifically hydrolyzed | significant hydrolysis | do not hydrolyze | significant hydrolysis | do not hydrolyze | about 3% | did not hydrolyze | very high efficiency | 666 µM | 29 µM | 25 s⁻¹ | around 100 times | – | – | – |
| fluorescein diphosphate tetraethyl ester | – | – | – | – | – | – | – | – | – | – | – | – | 100 fmol | significant fluorescence was detected | No fluorescence was detected |
| 6,8-difluoro-4-methylumbelliferyl phosphate | – | – | – | do hydrolyze significant amount | do hydrolyze significant amount | – | – | – | – | – | – | – | – | – | – |
